## scFv variants of Ab-14 (heavy chain) against a SARS-CoV-2 spike peptide

Reference: Engelhart et al. 2022, doi:10.1038/s41597-022-01779-4. File: FLAb, binding data.

The target is the same throughout: PDVDLGDISGINAS, from the HR2 region of SARS-CoV-2 spike.

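The starting antibody came from a phage panning campaign against this peptide. In library AAYL49, one, two or three CDR residues were substituted; doubles and triples were drawn at random. AlphaSeq pools MATa yeast showing the antibodies with MATalpha yeast showing the peptide. Pairs that bind mate more often; barcode pairs of the diploids are counted by sequencing. Scores were corrected for input abundance and mapped to Kd with protein pairs of known affinity run in the same pool. Mating was done three times.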

Parent: Ab-14, a human scFv built as VH, a 15-residue (Gly4Ser)3 linker, VL. Only the CDRs of the heavy chain vary.
VH: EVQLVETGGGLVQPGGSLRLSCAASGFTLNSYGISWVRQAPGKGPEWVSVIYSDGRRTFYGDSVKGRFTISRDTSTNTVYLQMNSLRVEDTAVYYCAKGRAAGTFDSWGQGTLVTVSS
VL: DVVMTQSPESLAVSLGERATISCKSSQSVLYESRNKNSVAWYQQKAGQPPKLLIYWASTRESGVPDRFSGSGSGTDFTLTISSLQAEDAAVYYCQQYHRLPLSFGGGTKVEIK

Substitutions are numbered in sequence along the VH above, starting at 1 (not Kabat). Values are log10 of the apparent Kd in nM; lower means stronger binding. Averages over replicates are reported, and they cover detected replicates only. "no signal" marks a missing value. The strain was present, yet no cells mated with the target were sequenced in any replicate, which points to weak or no binding. Background: pairings of library AAYL49 with three empty control strains gave a value in 15% of cases (median 4.06, 5th percentile 2.83). Values in that range, when seen in few replicates, are hard to tell from nonspecific mating. For reference, the parent read 0.65 as the reference entry and 4.11 (one replicate of three) as a member of this library.

| # | changes | mean log10 Kd (nM) | replicates with signal |
|---|---|---|---|
| 1 | Y32R+R56I+A102I | no signal | 0/3 |
| 2 | Y32F+T58W | 2.90 | 1/3 |
| 3 | N30F+I51P+R56G | 3.38 | 1/3 |
| 4 | L29Q+Y52G+G99F | 3.11 | 1/3 |
| 5 | S31T+S63C+V64E | 4.03 | 1/3 |
| 6 | I51F+T58W+F59R | 3.71 | 2/3 |
| 7 | Y52C+G55L+T58E | 4.46 | 2/3 |
| 8 | T28L+R100K+G103F | 1.74 | 3/3 |
| 9 | G26A+G33V+D62A | no signal | 0/3 |
| 10 | T58F+R100C+G103S | 4.11 | 3/3 |
| 11 | G55V+A102F | no signal | 0/3 |
| 12 | T28G+V50K+G61F | no signal | 0/3 |
| 13 | N30C+V50M+S53Q | no signal | 0/3 |
| 14 | S31V+Y32Q+I51K | no signal | 0/3 |
| 15 | D54F+F59Y+A102Y | no signal | 0/3 |
| 16 | R56I+S63W+T104K | 3.61 | 1/3 |
| 17 | L29C+Y52Q+G103N | no signal | 0/3 |
| 18 | Y52R+K65V+G99C | no signal | 0/3 |
| 19 | R57S+F59G+G61Y | no signal | 0/3 |
| 20 | N30W+I51W+R57C | 4.58 | 1/3 |
| 21 | V50Q+G99W+R100E | 4.08 | 1/3 |
| 22 | I51R+D62K+K65W | no signal | 0/3 |
| 23 | Y32N+G55T+D62K | no signal | 0/3 |
| 24 | N30S+D54F+R56P | no signal | 0/3 |
| 25 | T28E+D54A+A101P | no signal | 0/3 |
| 26 | N30D+S63C+S107Y | 2.97 | 3/3 |
| 27 | L29D+Y32D+S63N | no signal | 0/3 |
| 28 | S35E+R57W+K65W | no signal | 0/3 |
| 29 | G55V+R57Q+F105A | no signal | 0/3 |
| 30 | V50Y+S53E+S63R | no signal | 0/3 |
| 31 | F27I+Y60M+D106G | 4.71 | 1/3 |
| 32 | G26Y+I51Y+S53C | 5.62 | 1/3 |
| 33 | G55V+R56K+S107M | 3.67 | 1/3 |
| 34 | S31T+Y32H+I34K | 4.46 | 1/3 |
| 35 | S31C+G61V+F105G | 2.41 | 3/3 |

Further variants, results first:

| # | mean log10 Kd (nM) | replicates with signal | changes |
|---|---|---|---|
| 36 | no signal | 0/3 | S53H+G55Y+Y60T |
| 37 | 3.99 | 2/3 | I34K+Y52R+A101Y |
| 38 | no signal | 0/3 | V50A+I51P+S63N |
| 39 | no signal | 0/3 | G33K+D54G+G103C |
| 40 | 3.86 | 2/3 | L29E+V64R+T104V |
| 41 | 4.36 | 3/3 | Y52L+S53L+D54K |
| 42 | 3.78 | 1/3 | G26F+T28I+S35N |
| 43 | 2.61 | 3/3 | G26W+T28I+R100H |
| 44 | 3.34 | 1/3 | I34L+S35C+G103V |
| 45 | 3.72 | 1/3 | F27P+L29P+S107L |
| 46 | 4.87 | 1/3 | F27I+I51N+S53K |
| 47 | 5.40 | 1/3 | S53P+G61N+A101W |
| 48 | 0.82 | 3/3 | R56K+S63K |
| 49 | 2.52 | 3/3 | T28Y+N30Q+A102P |
| 50 | 2.59 | 3/3 | I51S+R56M+G61I |
| 51 | 4.70 | 2/3 | S53V+S63V+G99H |
| 52 | 0.74 | 3/3 | F27M+G61A+T104K |
| 53 | 3.87 | 1/3 | I34C+F105V |
| 54 | 2.58 | 1/3 | I51K+G55F+V64M |
| 55 | 3.96 | 1/3 | V50M+K65F+S107L |
| 56 | no signal | 0/3 | G55K+S63K+A102V |
| 57 | 0.95 | 3/3 | F59E+D62P+G103S |
| 58 | no signal | 0/3 | S31K+S53P+D106K |
| 59 | 1.10 | 3/3 | T28P+N30D+K65M |
| 60 | no signal | 0/3 | G33P+Y52K+V64K |
| 61 | 3.73 | 2/3 | L29G+F59E+Y60F |
| 62 | 4.60 | 1/3 | S35Y+V50L+R57M |
| 63 | 3.70 | 2/3 | G26K+R57C+G99T |
| 64 | 4.01 | 1/3 | G33Y+T104K+F105L |
| 65 | no signal | 0/3 | L29P+I51W+S107I |
| 66 | no signal | 0/3 | F27A+S63A+G99W |
| 67 | 4.66 | 2/3 | G33T+V64M+G99S |
| 68 | 4.02 | 2/3 | S35K+V50L+D62T |
| 69 | 4.71 | 1/3 | D54T+R56W+F105L |
| 70 | 1.67 | 3/3 | F27D+D62A |

The last 10 entries again:

| changes | mean log10 Kd (nM) | replicates with signal |
|---|---|---|
| L29G+F59E+Y60F | 3.73 | 2/3 |
| S35Y+V50L+R57M | 4.60 | 1/3 |
| G26K+R57C+G99T | 3.70 | 2/3 |
| G33Y+T104K+F105L | 4.01 | 1/3 |
| L29P+I51W+S107I | no signal | 0/3 |
| F27A+S63A+G99W | no signal | 0/3 |
| G33T+V64M+G99S | 4.66 | 2/3 |
| S35K+V50L+D62T | 4.02 | 2/3 |
| D54T+R56W+F105L | 4.71 | 1/3 |
| F27D+D62A | 1.67 | 3/3 |